Results on two molecules are retold here after patent publication US20020177166A1, “Binding motif of a receptor” (MEDVET SCIENCE PTY.LTD., priority 2000, published 2002).

Experiment [1] concerns CTL-EN cells. The experiment in a line: Cell cycle distribution, propidium iodide staining and flow cytometry. Type of experiment: cell-based. The following applies: CTL-EN cells growing asynchronously in the presence of IL-2. As to the method:
Cells were then stimulated for a further 24 hours with 50 ng/ml IL-3 in the same medium after which the cells were harvested by centrifugation, fixed in ethanol and stained with propidium iodide. Cell cycle distribution was then analysed by flow cytometry. b) c-myc induction in response to IL-3 stimulation. CTL-EN cells were washed, starved and stimulated with IL-3 for 2 hours as described above. Total RNA was extracted and subjected to Northern blot analysis. Filters were probed sequentially with ^32P-labelled cDNAs for c-myc and 18SrRNA. Signals were detected by autoradiography.
To determine if the signalling defect of the βcHSRSLP→EFAAAA receptor was specifically related to cell survival or if cell proliferation was also impaired, cell cycle progression in response to IL-3 was examined. CTL-EN cells were starved in medium containing 0.1% FCS and no IL-3 for 24 hours and then stimulated with IL-3 for up to 24 hours. The cells were then fixed in ethanol and the cell cycle distribution was examined by prodidium iodide staining and flow cytometry. Under these starvation conditions, nearly 90% of CTL-EN cells accumulate in the G0/G1 phase of the cell cycle (FIG. 16a). […] We also examined the regulation of c-myc mRNA expression in response to IL-3 by Northern blot analysis. The induction of c-myc is proposed to be an important pre-requisite for cell proliferation. […]
Background: Flow cytometry measures light scatter and fluorescence of single cells or particles in a stream.

Experiment [2] deals with CTL-EN cells. Put plainly: MTS reduction assay of metabolic activity. Conditions: 0.1% FCS. Type of experiment: cell-based. As for the experimental part: (a) CTL-EN cells expressing IL-3Ra and either wtβc or βcHSRSLP→EFAAAA were washed and then plated in duplicate at 2.5×10^5 cells/ml in DMEM containing 0.1% FCS and either 10 ng/ml IL-3, 10 ng/ml IL-2 or long/ml IL-3 and 5 mM LY294002. Viable cells were counted using the trypan blue exclusion method after 4 days. The results shown are typical of 3 experiments. (b) CTL-EN cells expressing IL-3Ra and either wtβc or βcHSRSLP→EFAAAA were washed and then plated in triplicate at 5×10^5 cells/ml in DMEM containing 0.1% FCS and either no IL-3, 1 ng/ml IL-3 or 10 ng/ml IL-3. Metabolic activity was measured each day using the CellTiter96 AQueous one solution cell proliferation assay according to the manufacturers instructions. Shown are the raw absorbance values (490 nm) plotted against day for CTL-EN cells expressing wtβc in the presence of no IL-3 (u), 1 ng/ml IL-3 (I) or 10 ng/ml IL3 (n) and CTL-EN cells expressing the βcHSRSLP→EFAAAA mutant in the presence of no IL-3 (u) or 10 ng/ml IL-3 (t).
Loss of cell viability in CTL-EN cells expressing the βcHSRSLP→EFAAAA in response to IL-3 was also reflected in loss of cellular metabolic activity as determined by the MTS reduction assay.
Loss of cell viability in CTL-EN cells expressing the βcHSRSLP→EFAAAA in response to IL-3 was also reflected in loss of cellular metabolic activity as determined by the MTS reduction assay. […]
A general note: Formazan colour is commonly taken as a measure of viable cells.

Take IL-2: IL-2 control cytokine: the “cells in G0/G1 phase” value with CTL-EN cells [1] is listed as “approximately 37%”.

B1: IL-3: recombinant human IL-3 produced in E. coli (protein, UniProt P08700 20-152, looked up)
Interleukin-3: APMTQTTPLKTSWVNCSNMIDEIITHLKQPPLPLLDFNNLNGEDQDILMENNLRRPNLEAFNRAVKSLQNASAIESILKNLLPCLPLATAAPTRHPIHIKDGDWNEFRRKLTFYLKTLENAQAQQTTLSLAIF
B1: the metabolic activity entry in the experiment on CTL-EN cells [2] (CTL-EN wtβc, up to 3 days) is listed as “maintain appreciable levels of metabolic activity”; with CTL-EN cells [2] (CTL-EN βcHSRSLP→EFAAAA), “lost metabolic activity”.
